Test results taken from paper PMC5777782 (Oncotarget, 2017).

Key:
[1] = molecular target: the molecule itself; experiment: AUC; sedimentation velocity, laser interferometry, 42,000 rpm, 20°C, protein at 0.1, 0.5 and 1 mg/ml, without AMP; distribution of monomers, dimers and tetramers
[2] = molecular target: the molecule itself; experiment: AUC; sedimentation velocity, laser interferometry, 42,000 rpm, 20°C, protein at 0.5 mg/ml, with 5 mM AMP

B1: wild-type human muscle fructose-1,6-bisphosphatase (FBP2) (enzyme, UniProt O00757 1-339, looked up)
chain: MTDRSPFETDMLTLTRYVMEKGRQAKGTGELTQLLNSMLTAIKAISSAVRKAGLAHLYGIAGSVNVTGDEVKKLDVLSNSLVINMVQSSYSTCVLVSEENKDAIITAKEKRGKYVVCFDPLDGSSNIDCLASIGTIFAIYRKTSEDEPSEKDALQCGRNIVAAGYALYGSATLVALSTGQGVDLFMLDPALGEFVLVEKDVKIKKKGKIYSLNEGYAKYFDAATTEYVQKKKFPEDGSAPYGARYVGSMVADVHRTLVYGGIFLYPANQKSPKGKLRLLYECNPVAYIIEQAGGLATTGTQPVLDVKPEAIHQRVPLILGSPEDVQEYLTCVQKNQAGS
notes: human muscle fructose-1,6-bisphosphatase FBP2, tag-free, on pETite plasmid; Tag-free construct; By ultracentrifugation it is a mixture of tetramers, dimers and monomers; also called WT FBP2; FBP2 WT; source: E. coli Hi-control BL21(DE3), purified (ammonium sulfate, cellulose phosphate)
With B1 the “stoichiometry N” value [1] was 4 and the “stoichiometry N” value [2] was 2.
